# Laboratory results: ChEMBL document CHEMBL2346585, “Novel 1,3,4-oxadiazole thioether derivatives targeting thymidylate synthase as dual anticancer/antimicrobial agents” (Bioorg Med Chem, 2013)
# Test: Inhibition of Escherichia coli thymidylate synthase by spectrophotometric analysis
compound,measurement,value
Cc1nc(=O)c2cc(CN(C)c3ccc(C(=O)N[C@@H](CCC(=O)O)C(=O)O)s3)ccc2[nH]1 [RALTITREXED],IC50,5.7 µM
